Data on one molecule can be found in patent US20100189719A1 (published 2010).

Protein sequences, listed by entry. Tags and fused reporters are not part of them. Chains listed by the source or under a name are the forms on record and can include a tag or linker.
UniProt P15692, other isoform, or with tags, fused parts or gaps: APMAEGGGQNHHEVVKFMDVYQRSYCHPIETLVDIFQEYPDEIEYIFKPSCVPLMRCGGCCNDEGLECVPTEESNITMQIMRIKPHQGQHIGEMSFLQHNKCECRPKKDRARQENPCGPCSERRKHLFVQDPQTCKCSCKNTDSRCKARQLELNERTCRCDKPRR

The IC50 is the concentration at which inhibition is half-maximal. A lower IC50 goes with higher potency.

This assay concerns the target human VEGF (hVEGF) (human, UniProt P15692 27-191). The experiment in a line: competition.

B1: G6 Fab (Fab, V domains shown)
VH: EVQLVESGGGLVQPGGSLRLSCAASGFTISDYWIHWVRQAPGKGLEWVAGITPAGGYTYYADSVKGRFTISADTSKNTAYLQMNSLRAEDTAVYYCARFVFFLPYAMDYWGQGTLVTVSS
VL: DIQMTQSPSSLSASVGDRVTITCRASQDVSTAVAWYQQKPGKAPKLLIYSASFLYSGVPSRFSGSGSGTDFTLTISSLQPEDFATYYCQQSYTTPPTFGQGTKVEIKR
On to B1, for which the IC50 is 2.5 nM.
